Tested on: NC(=O)c1ccc[n+]([C@@H]2O[C@H](COP(=O)([O-])OP(=O)(O)OC[C@H]3O[C@@H](n4cnc5c(N)ncnc54)[C@H](O)[C@@H]3O)[C@@H](O)[C@H]2O)c1
Experiment: purified protein, by the assay type
Settings: other: PARP1 FL

Q: PARP1 (Homo sapiens) was tested. Which Km did it give?
A: 0.78 ± 0.45 µM
